From ChEMBL document CHEMBL1817631, “Synthesis and characterization of tritylthioethanamine derivatives with potent KSP inhibitory activity” (Bioorg Med Chem, 2011)

Molecular target: T1, Kinesin-like protein KIF11 (Homo sapiens, UniProt P52732)
T1 sequence (P52732 whole entry): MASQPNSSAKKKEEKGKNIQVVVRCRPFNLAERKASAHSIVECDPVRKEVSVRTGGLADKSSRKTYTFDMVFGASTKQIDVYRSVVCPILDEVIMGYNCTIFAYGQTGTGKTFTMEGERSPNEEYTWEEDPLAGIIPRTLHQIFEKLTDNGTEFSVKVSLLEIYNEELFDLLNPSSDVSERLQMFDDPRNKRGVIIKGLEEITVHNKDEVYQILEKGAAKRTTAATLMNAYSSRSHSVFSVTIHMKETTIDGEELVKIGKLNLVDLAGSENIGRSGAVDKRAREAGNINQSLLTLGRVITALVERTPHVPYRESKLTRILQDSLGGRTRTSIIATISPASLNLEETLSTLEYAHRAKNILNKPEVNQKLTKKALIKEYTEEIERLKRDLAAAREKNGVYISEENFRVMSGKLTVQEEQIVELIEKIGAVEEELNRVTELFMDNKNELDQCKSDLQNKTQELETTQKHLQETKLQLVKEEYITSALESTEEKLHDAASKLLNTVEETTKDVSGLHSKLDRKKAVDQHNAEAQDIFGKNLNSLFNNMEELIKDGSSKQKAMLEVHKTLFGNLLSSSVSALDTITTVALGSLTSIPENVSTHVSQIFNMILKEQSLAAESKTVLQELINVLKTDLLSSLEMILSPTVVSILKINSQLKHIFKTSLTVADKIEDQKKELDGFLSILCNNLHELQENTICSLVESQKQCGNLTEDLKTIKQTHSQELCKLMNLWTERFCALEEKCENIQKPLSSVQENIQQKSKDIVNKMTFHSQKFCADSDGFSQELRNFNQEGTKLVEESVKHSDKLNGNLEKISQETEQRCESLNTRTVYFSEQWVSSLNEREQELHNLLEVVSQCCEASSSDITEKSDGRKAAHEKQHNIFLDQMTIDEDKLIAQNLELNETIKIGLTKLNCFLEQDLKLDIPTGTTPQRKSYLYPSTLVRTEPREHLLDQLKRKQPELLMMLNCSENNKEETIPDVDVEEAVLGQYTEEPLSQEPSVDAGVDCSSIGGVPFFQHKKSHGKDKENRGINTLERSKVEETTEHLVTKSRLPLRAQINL

Row | SMILES | pIC50
1 | N[C@H](CO)CSC(c1ccccc1)(c1ccccc1)c1ccccc1 | 6.51
2 | COc1ccc(C(SC[C@H](N)CO)(c2ccccc2)c2ccccc2)cc1 | 6.90
3 | COc1ccc(C(SC[C@@H](N)CO)(c2ccccc2)c2ccccc2)cc1 | 6.89

pIC50: −log10 of the molar value.
